# Experimental data reported in patent US20030119719A1, “Use of endothelin conjugates in therapy, new endothelin conjugates, agents that contain the latter, and process for their production” (priority 1996, published 2003).
# Entries after “also recorded” stand apart in the source; their conditions may differ.
# Assays:
# [1] = system: common carotid artery; assay: Local application via administration catheter in the denuded common carotid artery, dynamic scintigraphy and autoradiography
# Excerpt: b) Local Application of the Tc-99m Complex of NH2-Asp-Gly-Gly-Cys-Gly-Cys-Phe-(D-Trp)-Leu-Asp-Ile-Ile-Trp-OH as well as Tc-99m-pertechnetate in the Common Carotid Artery of White New Zealand Rabbits
# In anesthetized white New Zealand rabbits (3.5 kg), the right common carotid artery was opened up. A 2 F balloon catheter (from the Baxter Company) was inserted cranially through a cut, and a vascular area approximately 5 cm long was denuded twice with 0.9% saline after the catheter was inflated. Then, an administration catheter (coronary perfusion/infusion catheter, dispatch 3.0, Baxter Company) was fed to the above-denuded area. […] Then, the catheter was removed, and the blood flow after closure of the common carotid artery dextra was restored using a suture. Dynamic scintigrams were prepared over a period of 1 hour with the aid of a commercial gamma camera. Then, the animals were sacrificed, both carotids were removed, and an autoradiography was prepared.
# [2] = system: arteriosclerotic plaque; assay: In vivo and in vitro concentration in WHHL rabbits (gamma camera imaging, autoradiography of the aorta); conditions: 5 hours after administration, 2 mCi via an ear vein
# Method: In Vivo and In Vitro Concentration of the ^99mTc-Complex of […] in WHHL Rabbits 2 mCi (1 ml) of the […]Tc-complex that is produced according to 5a) is administered to an anesthetized WHHL rabbit (Rompun/Ketavet 1:2) via an ear vein. WHHL rabbits have a high LDL level in the blood because of a deficient or defective LDL receptor and therefore create spontaneously arteriosclerotic vascular alterations. During the test period of 5 hours after the administration, static images of various exposure times and of various positions were produced with a gamma camera ([…]). 5 hours after the administration, the rabbit was sacrificed, and both an autoradiography of the aorta and a Sudan III coloring were carried out.
substance,measurement,setting,value
^99mTc Complex of Asp-Gly-Gly-Cys-Gly-Cys-Phe-(D-Trp)-Leu-Asp-Ile-Ile-Trp,course of the locally administered activity at the administration site after blood flow is restored,"[1]; examination period of 1 hour, dynamic scintigrams, right common carotid artery",decreased only insignificantly; also recorded: remains in place; also recorded: decreased only marginally
same,share of the injected dose transported locally to the denuded artery,"[1]; local administration of 7.4 MBq in 0.9 ml via catheter, denuded right common carotid artery",about 5 % of the injected dose
same,accumulation in arteriosclerotic lesions (autoradiography),[2],3930 cpm/mm^2
same,accumulation in the macroscopically unaltered aorta (autoradiography),[2],380 cpm/mm^2
